Our source for the EC50 and Ki values is ChEMBL document CHEMBL1145259, “Arylacetamide kappa opioid receptor agonists with reduced cytochrome P450 2D6 inhibitory activity” (Bioorg Med Chem Lett, 2005).

Protein sequences, listed by entry. Tags and fused reporters are not part of them. Lines headed by an entry give the natural chain unless they say otherwise; changes in a name come on top.
UniProt P41145: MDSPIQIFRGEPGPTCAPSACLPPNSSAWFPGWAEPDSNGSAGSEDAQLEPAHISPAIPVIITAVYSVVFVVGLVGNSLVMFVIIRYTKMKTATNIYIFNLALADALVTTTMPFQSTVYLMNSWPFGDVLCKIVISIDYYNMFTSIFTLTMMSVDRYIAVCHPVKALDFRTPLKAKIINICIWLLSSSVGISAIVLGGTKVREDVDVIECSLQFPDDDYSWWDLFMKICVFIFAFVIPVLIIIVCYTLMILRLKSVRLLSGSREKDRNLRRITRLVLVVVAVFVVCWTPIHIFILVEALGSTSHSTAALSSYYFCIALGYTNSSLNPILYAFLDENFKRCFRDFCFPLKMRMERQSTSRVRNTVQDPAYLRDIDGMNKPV
UniProt P41143, whole entry, looked up: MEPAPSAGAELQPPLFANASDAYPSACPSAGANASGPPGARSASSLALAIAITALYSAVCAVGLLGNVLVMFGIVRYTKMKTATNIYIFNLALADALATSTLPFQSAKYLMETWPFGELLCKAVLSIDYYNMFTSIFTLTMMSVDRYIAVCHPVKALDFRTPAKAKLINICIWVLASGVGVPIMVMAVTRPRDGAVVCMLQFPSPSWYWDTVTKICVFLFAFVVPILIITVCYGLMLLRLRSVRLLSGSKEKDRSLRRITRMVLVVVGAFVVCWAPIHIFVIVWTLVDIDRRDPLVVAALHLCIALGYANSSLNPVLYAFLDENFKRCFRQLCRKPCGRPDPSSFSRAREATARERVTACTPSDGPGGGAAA
UniProt P35372, whole entry, looked up: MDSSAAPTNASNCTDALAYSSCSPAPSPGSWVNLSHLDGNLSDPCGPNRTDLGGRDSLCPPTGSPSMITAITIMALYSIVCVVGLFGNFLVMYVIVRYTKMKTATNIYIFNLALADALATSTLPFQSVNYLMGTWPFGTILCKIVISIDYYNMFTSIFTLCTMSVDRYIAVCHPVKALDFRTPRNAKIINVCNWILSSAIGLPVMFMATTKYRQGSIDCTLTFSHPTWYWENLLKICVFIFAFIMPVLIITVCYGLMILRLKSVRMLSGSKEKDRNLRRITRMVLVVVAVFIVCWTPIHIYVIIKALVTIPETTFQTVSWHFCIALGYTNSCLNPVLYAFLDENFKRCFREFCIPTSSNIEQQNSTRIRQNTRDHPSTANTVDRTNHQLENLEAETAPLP

Molecules are shown by their SMILES.

The target in test [1] is Kappa-type opioid receptor (Homo sapiens, UniProt P41145).
The target in test [2] is Delta-type opioid receptor (Homo sapiens, UniProt P41143). As to the kind of experiment: Inhibitory constant against human Opioid receptor delta 1 using [3H]diprenorphine as radio ligand.
Another test addresses Mu-type opioid receptor (Homo sapiens, UniProt P35372). As to the kind of experiment: Inhibitory constant against human Opioid receptor mu 1 using [3H]diprenorphine as radio ligand.

A word on the EC50: it is the concentration at which the effect is half-maximal. Low readings indicate a more potent agent, high ones a less potent agent. As for `CN(C(=O)Cc1ccccc1)[C@H](CN1CCCC1)c1ccccc1`, in test [1], the EC50 turned out to be 50 nM.

A word on the Ki: it is a measure of affinity in units of concentration, obtained from inhibition or displacement. Read a high Ki as a looser hold on the target. Regarding `CN(C(=O)Cc1ccc(Cl)c(Cl)c1)[C@H](CN1CCCC1)c1ccccc1` [ICI-199,441], the figures for the Ki (in test [2]; on Mu-type opioid receptor) were 24 nM and 53 nM, respectively. Further, it took 0.3 nM to reach a half-maximal effect in test [1] (EC50).
